# Target: T1, human APJ (Homo sapiens, UniProt P35414)
# T1 construct: expressed in transfected cells
# T1 sequence (P35414 1-380): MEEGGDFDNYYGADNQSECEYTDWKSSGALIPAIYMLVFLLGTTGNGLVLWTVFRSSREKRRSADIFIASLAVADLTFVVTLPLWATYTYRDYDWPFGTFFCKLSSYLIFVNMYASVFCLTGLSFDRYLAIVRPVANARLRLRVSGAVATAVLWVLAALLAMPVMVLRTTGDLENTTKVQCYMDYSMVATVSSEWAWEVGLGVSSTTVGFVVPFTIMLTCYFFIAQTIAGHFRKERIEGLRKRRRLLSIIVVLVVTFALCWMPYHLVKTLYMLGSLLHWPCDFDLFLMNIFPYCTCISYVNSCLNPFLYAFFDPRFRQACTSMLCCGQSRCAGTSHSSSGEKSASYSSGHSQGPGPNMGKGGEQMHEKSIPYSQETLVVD
# Assay: cAMP assay, stable CHO cell line expressing human APJ
# Type: cell-based
# Conditions: FIG. 5; cAMP seen with either human or rat APJ stable cell lines
# Procedure: Stable CHO cell lines expressing APJ were used for cAMP assays. The cells were incubated with stimulation buffer containing HANK's buffer, forskolin and 0.5 mM IBMX in the absence or presence of various concentrations' of peptides at 37° C. for 45 min. The cAMP level was determined using a cyclic AMP kit (DiscoverX) according to the manufacturer's instructions.
# Additionally, the stimulation of cAMP can be seen using either human or rat APJ stable cell lines.
substance,measurement,value
3-((2-(3-(mPEG(20kDa))propylamino)-2-oxoethyl)thio)propanamide-[Leu65;hArg68;Cha69;Oic74;Nle75;4-Cl-F77]Apelin-13(65-77) [SEQ ID NO: 26],agonist activity relative to pyr apelin-13 (SEQ ID NO: 128),potent and act as a full agonist

# Reference: patent US20160067347A1, “APJ RECEPTOR AGONISTS AND USES THEREOF” (AMGEN INC., priority 2012, published 2016)
